# System: mycoplasma isolates of chicken origin
# Experiment: MIC, serial microdilution, mycoplasma isolates of chicken origin
# Type: cell-based
# Settings: isolate 20008
structure (smiles),measurement,value
CC[C@H]1OC(=O)C[C@@H](O)[C@H](C)[C@@H](O[C@@H]2O[C@H](C)[C@@H](O[C@H]3C[C@@](C)(O)[C@@H](O)[C@H](C)O3)[C@H](N(C)C)[C@H]2O)[C@@H](CC=O)C[C@@H](C)C(=O)/C=C/C(C)=C/[C@@H]1CO[C@@H]1O[C@H](C)[C@@H](O)[C@@H](OC)[C@H]1OC [tylosin],MIC,0.0625 µg/mL
